In publication PMC7253423, “Quassinoid analogs with enhanced efficacy for treatment of hematologic malignancies target the PI3Kγ isoform” (Communications Biology, 2020):

What was measured:
LCL1 cells [1] = experiment: Cell viability assay (CellTiter-Glo luminescence); format: cell-based, human
Protocol: (§1) On the next day, Brusatol or associated analogs were added once to the cells without media change. After treatment, the cells were incubated with 100 μl buffer for 10 min at room temperature following the instructions of CellTiter-Glo kit (Promega, Madison, WI). Luminescence was detected using a multi-mode reader Cytation 5 (BioTek, Winooski, VT). Brusatol or its analogs are dissolved in 100% ethanol and diluted in 1 × PBS for treatment. Two independent experiments done in duplicates were performed.

SU-DHL-4 cells = experiment: Cell viability assay (CellTiter-Glo luminescence); format: cell-based, human; settings: for relative cell viability (Fig 6d), replicates: fraction of 0 μM control
Protocol: as §1, with “5000 cells as indicated were cultured in 96-well plate with 100 μl of media. On” for “On”

H929 cells = experiment: Cell viability assay (CellTiter-Glo luminescence); format: cell-based, human; settings: Fig 3a
Protocol: as §1, with “5000 cells as indicated were cultured in 96-well plate with 100 μl of media. On” for “On”

SU-DHL-10 cells = experiment: Cell viability assay (CellTiter-Glo luminescence); format: cell-based, human; settings: Fig 3a
Protocol: as §1, with “5000 cells as indicated were cultured in 96-well plate with 100 μl of media. On” for “On”

SU-DHL-6 cells = experiment: Cell viability assay (CellTiter-Glo luminescence); format: cell-based, human; settings: SU-DHL-6, relative to Control, Fig 1d / Fig 5a
Protocol: as §1, with “5000 cells as indicated were cultured in 96-well plate with 100 μl of media. On” for “On”

LCL2 cells = experiment: Cell viability assay (CellTiter-Glo luminescence); format: cell-based, human; settings: LCL2, relative to Control, Fig 1d / Fig 5a
Protocol: as §1, with “5000 cells as indicated were cultured in 96-well plate with 100 μl of media. On” for “On”

NPC43 cells = experiment: Cell viability assay (CellTiter-Glo luminescence); format: cell-based, human; settings: Fig 4a
Protocol: as §1, with “5000 cells as indicated were cultured in 96-well plate with 100 μl of media. On” for “On”

Raji cells [2] = experiment: Cell viability assay (CellTiter-Glo luminescence); format: cell-based, human; settings: Raji; for Relative cell viability: Fig 1c; for relative cell viability (Fig 6f), replicates: fraction of 0 μM control
Protocol: as §1, with “5000 cells as indicated were cultured in 96-well plate with 100 μl of media. On” for “On”

BJAB cells = experiment: Cell viability assay (CellTiter-Glo luminescence); format: cell-based, human; settings: relative to Control, Fig 1d / Fig 5a
Protocol: as §1, with “5000 cells as indicated were cultured in 96-well plate with 100 μl of media. On” for “On”

HL-60 cells = experiment: Cell viability assay (CellTiter-Glo luminescence); format: cell-based, human; settings: Fig 3a
Protocol: as §1, with “5000 cells as indicated were cultured in 96-well plate with 100 μl of media. On” for “On”

LCL1 cells [3] = experiment: Real-time PCR, mRNA expression; format: cell-based, human; settings: Fig 2g
Protocol: (§2) Real-time PCR experiments were performed as previously described. The experiments were performed in triplicate.

Raji cells [4] = experiment: Real-time PCR, mRNA expression; format: cell-based, human; settings: Fig 2f, experiments 1st-4th
Protocol: as §2

MOLM14 xenografts = experiment: mRNA expression in xenograft tumors in vivo; set-up: species or system NOD/SCID mice; settings: Ctrl = 1, Fig S3j
Protocol: as §2
Six-week-old male NOD.CB17-Prkdc^scid/J (NOD/SCID) mice (Jackson Labs, Bar Harbor, ME, USA) were used as the human-in-mouse xeno-transplantation model. MOLM14 cells (1 × 10^7 cells) were injected into the subcutaneous space on the left flank of the mice. Once xenografts reached a size of 100 mm^3, Brusatol and analogs (#14, #15, #26, #31) at 2 mg/kg body weight or PBS were injected intraperitoneally three times per week. Body weight and tumor size were monitored before every injection. After treatment for 2 weeks, the mice were euthanized by CO2 inhalation and the tumors were carefully excised. The tumor volume (mm^3) was measured and calculated using the formula (a × b × b)/2 (a, the largest diameter of two measurements; b, the smallest diameter of two measurements).

Brusatol
Relative cell viability (LCL1 cells [1]; LCL1, Con. 0.000244141 μM, Fig 1c): 1.239 and 1.152 | Relative cell viability (LCL1 cells [1]; LCL1, Con. 0.000976563 μM, Fig 1c): 1.178 and 1.161 | Relative cell viability (LCL1 cells [1]; LCL1, Con. 0.00390625 μM, Fig 1c): 0.4296 and 0.405 | Relative cell viability (LCL1 cells [1]; LCL1, Con. 0.015625 μM, Fig 1c): 0.2452 and 0.2178 | Relative cell viability (LCL1 cells [1]; LCL1, Con. 0.0625 μM, Fig 1c): 0.1961 and 0.1943 | Relative cell viability (LCL1 cells [1]; LCL1, Con. 0.25 μM, Fig 1c): 0.2021 and 0.1842 | Relative cell viability (LCL1 cells [1]; LCL1, Con. 1 μM, Fig 1c): 0.2333 and 0.2062 | Relative cell viability (LCL1 cells [1]; LCL1, relative to Control, Fig 1d / Fig 5a): 0.1749 and 0.2474 | Relative cell viability (SU-DHL-4 cells; SU-DHL-4, Con. 0.000244141 μM, Fig 3a): 1.153 and 0.8294 | Relative cell viability (SU-DHL-4 cells; SU-DHL-4, Con. 0.000244141 μM, Fig 4a): 0.8035 and 0.8856 | Relative cell viability (SU-DHL-4 cells; SU-DHL-4, Con. 0.000976563 μM, Fig 4a): 0.4905 and 0.4207 | relative cell viability (Fig 6d), replicates (SU-DHL-4 cells; SU-DHL-4, Con. 0.00244141 μM): 1.534 and 1.104 | Relative cell viability (SU-DHL-4 cells; SU-DHL-4, Con. 0.00390625 μM, Fig 3a): 0.113 and 0.06547 | Relative cell viability (SU-DHL-4 cells; SU-DHL-4, Con. 0.00390625 μM, Fig 4a): 0.1671 and 0.2096 | relative cell viability (Fig 6d), replicates (SU-DHL-4 cells; SU-DHL-4, Con. 0.00976562 μM): 1.3333 and 1.429 | Relative cell viability (SU-DHL-4 cells; SU-DHL-4, Con. 0.015625 μM, Fig 3a): 0.04732 and 0.03797 | Relative cell viability (SU-DHL-4 cells; SU-DHL-4, Con. 0.015625 μM, Fig 4a): 0.128 and 0.2431 | relative cell viability (Fig 6d), replicates (SU-DHL-4 cells; SU-DHL-4, Con. 0.0390625 μM): 1.114 and 0.7293 | Relative cell viability (SU-DHL-4 cells; SU-DHL-4, Con. 0.0625 μM, Fig 3a): 0.03046 and 0.03255 | Relative cell viability (SU-DHL-4 cells; SU-DHL-4, Con. 0.0625 μM, Fig 4a): 0.1193 and 0.1216 | relative cell viability (Fig 6d), replicates (SU-DHL-4 cells; SU-DHL-4, Con. 0.15625 μM): 0.3764 and 0.3448 | Relative cell viability (SU-DHL-4 cells; SU-DHL-4, Con. 0.25 μM, Fig 3a): 0.02502 and 0.02181 | Relative cell viability (SU-DHL-4 cells; SU-DHL-4, Con. 0.25 μM, Fig 4a): 0.1169 and 0.1247 | relative cell viability (Fig 6d), replicates (SU-DHL-4 cells; SU-DHL-4, Con. 0.625 μM): 0.1642 and 0.114 | Relative cell viability (SU-DHL-4 cells; SU-DHL-4, Con. 1 μM, Fig 3a): 0.02033 and 0.01885 | Relative cell viability (SU-DHL-4 cells; SU-DHL-4, Con. 1 μM, Fig 4a): 0.1402 and 0.197 | relative cell viability (Fig 6d), replicates (SU-DHL-4 cells; SU-DHL-4, Con. 2.5 μM): 0.06413 and 0.06818 | relative cell viability (Fig 6d), replicates (SU-DHL-4 cells; SU-DHL-4, Con. 10 μM): 0.06047 and 0.06384 | Relative cell viability (SU-DHL-4 cells; SU-DHL-4, relative to Control, Fig 1d / Fig 5a): 0.132 and 0.08098 | Relative cell viability (H929 cells; H929, Con. 0.000244141 μM): 1.048 and 0.8831 | Relative cell viability (H929 cells; H929, Con. 0.000976563 μM): 1.073 and 1.077 | Relative cell viability (H929 cells; H929, Con. 0.00390625 μM): 1.16 and 1.049 | Relative cell viability (H929 cells; H929, Con. 0.015625 μM): 0.6265 and 0.5185 | Relative cell viability (H929 cells; H929, Con. 0.0625 μM): 0.2216 and 0.1683 | Relative cell viability (H929 cells; H929, Con. 0.25 μM): 0.07977 and 0.1061 | Relative cell viability (H929 cells; H929, Con. 1 μM): 0.06659 and 0.0561 | Relative cell viability (SU-DHL-10 cells; SU-DHL-10, Con. 0.000244141 μM): 1.359 and 1.404 | Relative cell viability (SU-DHL-10 cells; SU-DHL-10, Con. 0.000976563 μM): 1.257 and 1.158 | Relative cell viability (SU-DHL-10 cells; SU-DHL-10, Con. 0.00390625 μM): 0.3529 and 0.2618 | Relative cell viability (SU-DHL-10 cells; SU-DHL-10, Con. 0.015625 μM): 0.06855 and 0.07532 | Relative cell viability (SU-DHL-10 cells; SU-DHL-10, Con. 0.0625 μM): 0.0486 and 0.04989 | Relative cell viability (SU-DHL-10 cells; SU-DHL-10, Con. 0.25 μM): 0.03432 and 0.03338 | Relative cell viability (SU-DHL-10 cells; SU-DHL-10, Con. 1 μM): 0.03538 and 0.0343 | Relative cell viability (SU-DHL-6 cells): 0.143 and 0.1591 | Relative cell viability (LCL2 cells): 0.2781 and 0.2516 | Relative cell viability (NPC43 cells; NPC43, Con. 0.000244141 μM): 1.007 and 1.011 | Relative cell viability (NPC43 cells; NPC43, Con. 0.000976563 μM): 1.06 and 0.9635 | Relative cell viability (NPC43 cells; NPC43, Con. 0.00390625 μM): 1.024 and 1.0649 | Relative cell viability (NPC43 cells; NPC43, Con. 0.015625 μM): 1.008 and 1.084 | Relative cell viability (NPC43 cells; NPC43, Con. 0.0625 μM): 0.9475 and 0.9014 | Relative cell viability (NPC43 cells; NPC43, Con. 0.25 μM): 0.5585 and 0.6588 | Relative cell viability (NPC43 cells; NPC43, Con. 1 μM): 0.445 and 0.471 | Relative cell viability (Raji cells [2]; Con. 0.000244141 μM): 1.102 and 1.085 | Relative cell viability (Raji cells [2]; Con. 0.000976563 μM): 0.9852 and 1.066 | relative cell viability (Fig 6f), replicates (Raji cells [2]; Con. 0.00244141 μM): 1.11 and 0.9877 | Relative cell viability (Raji cells [2]; Con. 0.00390625 μM): 0.6796 and 0.8115 | relative cell viability (Fig 6f), replicates (Raji cells [2]; Con. 0.00976562 μM): 1.052 and 1.015 | Relative cell viability (Raji cells [2]; Con. 0.015625 μM): 0.1834 and 0.2298 | relative cell viability (Fig 6f), replicates (Raji cells [2]; Con. 0.0390625 μM): 0.8377 and 0.6422 | Relative cell viability (Raji cells [2]; Con. 0.0625 μM): 0.0668 and 0.05639 | relative cell viability (Fig 6f), replicates (Raji cells [2]; Con. 0.15625 μM): 0.2334 and 0.208 | Relative cell viability (Raji cells [2]; Con. 0.25 μM): 0.04518 and 0.0472 | relative cell viability (Fig 6f), replicates (Raji cells [2]; Con. 0.625 μM): 0.07627 and 0.07616 | Relative cell viability (Raji cells [2]; Con. 1 μM): 0.0408 and 0.04055 | relative cell viability (Fig 6f), replicates (Raji cells [2]; Con. 2.5 μM): 0.0482 and 0.0454 | relative cell viability (Fig 6f), replicates (Raji cells [2]; Con. 10 μM): 0.04976 and 0.05217 | Relative cell viability (BJAB cells): 0.6687 and 0.5708 | Relative cell viability (HL-60 cells; HL-60, Con. 0.000244141 μM): 0.8336 and 0.8977 | Relative cell viability (HL-60 cells; HL-60, Con. 0.000976563 μM): 0.8923 and 0.9849 | Relative cell viability (HL-60 cells; HL-60, Con. 0.00390625 μM): 0.9023 and 0.9577 | Relative cell viability (HL-60 cells; HL-60, Con. 0.015625 μM): 0.7622 and 0.7425 | Relative cell viability (HL-60 cells; HL-60, Con. 0.0625 μM): 0.5978 and 0.6056 | Relative cell viability (HL-60 cells; HL-60, Con. 0.25 μM): 0.5376 and 0.5558 | Relative cell viability (HL-60 cells; HL-60, Con. 1 μM): 0.5035 and 0.5943 | AKT1 mRNA expression relative to Control (LCL1 cells [3]): 0.6046 | ATF3 mRNA expression relative to Control (LCL1 cells [3]): 0.5899 | PIK3C2B mRNA expression relative to Control (LCL1 cells [3]): 0.4852 | PIK3CG mRNA expression relative to Control (LCL1 cells [3]): 0.4647 | FOXO3 mRNA expression relative to Control (Raji cells [4]): 0.8069 and 1.138 and 1.051 and 0.8646 | MYC mRNA expression relative to Control (Raji cells [4]): 2.969 and 1.724 | NME2 mRNA expression relative to Control (Raji cells [4]): 0.459 and 0.8677 and 0.7393 and 0.5689 | TP73 mRNA expression relative to Control (Raji cells [4]): 1.114 and 1.008 and 1.162 | GSK3B mRNA expression relative to Ctrl (MOLM14 xenografts): 0.7303 | PIK3CG mRNA expression relative to Ctrl (MOLM14 xenografts): 1.196

Several values for one entry are separate records, joined by “and”; a condition that tells them apart may be missing. Equal entries are not always repeated.
